Apparent affinities of Ab-95 variants for a coronavirus HR2 peptide

Binding partner: SARS-CoV-2 spike HR2 peptide, sequence PDVDLGDISGINAS.

The variants keep the heavy chain, the linker and the frameworks of Ab-95 (scFv order VH, three GGGGS repeats, VL).
VH: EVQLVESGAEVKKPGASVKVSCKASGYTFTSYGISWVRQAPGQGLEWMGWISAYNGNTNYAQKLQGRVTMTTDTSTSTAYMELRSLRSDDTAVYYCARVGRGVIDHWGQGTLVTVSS
VL: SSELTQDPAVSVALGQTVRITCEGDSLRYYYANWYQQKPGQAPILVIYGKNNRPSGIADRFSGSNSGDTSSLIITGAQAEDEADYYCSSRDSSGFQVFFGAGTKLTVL

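The parent was found by panning a naive human phage display library on the peptide. Library AAYL52 holds single substitutions and randomly drawn double and triple substitutions in the CDRs. The scFvs were displayed on barcoded MATa yeast, the peptide on MATalpha yeast. The frequency of each diploid, read from paired DNA barcodes, reflects how well the two displayed proteins bind. Scores were corrected for input abundance and mapped to Kd with protein pairs of known affinity run in the same pool. The assay was run in three technical replicates.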

Sequences are complete VL domains.
The read-out is the apparent dissociation constant on a log10 scale (nM): the lower, the stronger.
The mean shown is taken over the replicates in which the pair was detected.
Where no diploid with the target was found in that replicate, the entry reads "ND": below detection, most likely a poor binder, though not proof of it.
As a blank, each scFv also met three strains without target: over library AAYL52, 28% of these pairings were detected, typically at 3.91 and seldom below 2.90. Also given: how often the same scFv was detected with the empty control strains, with their mean in brackets.
In this assay the parent's reference entry averaged 2.31; its copy inside this library read 2.25.

VL	log10 Kd, replicates	mean, log10 nM	control signals
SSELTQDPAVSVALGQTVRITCEGDSLRYYYANWYQQKPGQAPILVIYGKSNRPHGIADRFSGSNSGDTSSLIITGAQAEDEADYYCGSRDSSGFQVFFGAGTKLTVL	3.16 / 3.62 / 3.19	3.33	1/9 (3.59)
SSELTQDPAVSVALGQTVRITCEGDYLRYYYANWYQQKPGQAPILVIYGKNNRPSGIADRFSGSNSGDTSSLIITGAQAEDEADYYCSSRDSSKFQVFFGAGTKLTVL	ND / 3.18 / 2.97	3.07	1/9 (3.62)
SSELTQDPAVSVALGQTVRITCEGDSYRYYYWNWYQQKPGQAPILVIYGKNNRPSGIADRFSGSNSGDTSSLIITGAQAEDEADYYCSSRDRSGFQVFFGAGTKLTVL	3.91 / 4.11 / 4.66	4.23	4/9 (4.43)
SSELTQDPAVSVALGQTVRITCEYDSLRYYYANWYQQKPGQAPILVIYGKSNRPSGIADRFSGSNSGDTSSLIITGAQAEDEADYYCSSRDSSSFQVFFGAGTKLTVL	5.13 / ND / ND	5.13	3/9 (3.75)
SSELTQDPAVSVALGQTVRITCLGDSLRYYRANWYQQKPGQAPILVIYMKNNRPSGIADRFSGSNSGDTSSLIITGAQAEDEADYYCSSRDSSGFQVFFGAGTKLTVL	4.14 / 5.54 / ND	4.84	3/9 (3.94)
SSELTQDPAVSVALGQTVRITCEGDSLRYYYANWYQQKPGQAPILVIYGDNNRPSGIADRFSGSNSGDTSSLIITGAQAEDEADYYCSSRDSWGFNVFFGAGTKLTVL	3.50 / 2.84 / 2.26	2.87	4/9 (3.94)
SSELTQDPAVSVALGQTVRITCEGDSLRYYYANWYQQKPGQAPILVIYGKNNFPSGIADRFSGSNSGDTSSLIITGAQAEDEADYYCSSRDSMGFQDFFGAGTKLTVL	ND / ND / ND	ND	2/9 (3.27)
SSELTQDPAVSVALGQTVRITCEGDSLIYYYAFWYQQKPGQAPILVIYGKNNRPSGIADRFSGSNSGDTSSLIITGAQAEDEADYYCSSRFSSGFQVFFGAGTKLTVL	ND / 3.61 / 3.58	3.60	1/9 (2.55)
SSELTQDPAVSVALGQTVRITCEGDCLRYYYANWYQQKPGQAPILVIYGKNNRPSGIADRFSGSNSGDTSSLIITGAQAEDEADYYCSSRDFSGFQVFFGAGTKLTVL	2.50 / 2.29 / 2.10	2.30	4/9 (3.87)
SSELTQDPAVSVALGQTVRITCEGDSLRYYYNNWYQQKPGQAPILVIYGFNERPSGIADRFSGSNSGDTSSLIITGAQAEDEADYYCSSRDSSGFQVFFGAGTKLTVL	3.37 / 3.94 / 4.30	3.87	2/9 (3.60)
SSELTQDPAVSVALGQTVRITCEGDILRYYQANWYQQKPGQAPILVIYGKNNRPYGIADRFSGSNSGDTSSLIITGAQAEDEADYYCSSRDSSGFQVFFGAGTKLTVL	2.53 / 2.84 / 2.42	2.60	0/9
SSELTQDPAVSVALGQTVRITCEGDSLRYYYANWYQQKPGQAPILVIYGKNNRPNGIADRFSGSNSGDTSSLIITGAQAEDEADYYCPSRDSSGRQVFFGAGTKLTVL	ND / ND / ND	ND	0/9
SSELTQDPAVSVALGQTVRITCEGDSHRYYYGWWYQQKPGQAPILVIYGKNNRPSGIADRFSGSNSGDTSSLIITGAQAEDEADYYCSSRDSSGFQVFFGAGTKLTVL	ND / 5.56 / ND	5.56	4/9 (4.00)
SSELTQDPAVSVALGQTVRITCEGDSERYYMANWYQQKPGQAPILVIYGKNNRPSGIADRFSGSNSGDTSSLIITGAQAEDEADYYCSSRDVSGFQVFFGAGTKLTVL	3.05 / 3.24 / 2.36	2.89	5/9 (3.79)
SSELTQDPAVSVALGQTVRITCEGDSLRYYRANWYQQKPGQAPILVIYGKNNRQSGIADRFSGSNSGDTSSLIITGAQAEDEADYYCSSRDSQGFQVFFGAGTKLTVL	3.09 / 3.08 / 2.83	3.00	2/9 (3.34)
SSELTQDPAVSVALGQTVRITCEGHSLVYYYANWYQQKPGQAPILVIYGKTNRPSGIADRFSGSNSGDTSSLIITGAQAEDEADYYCSSRDSSGFQVFFGAGTKLTVL	2.25 / 2.11 / 1.33	1.90	4/9 (3.84)
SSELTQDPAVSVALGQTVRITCTGDSLRYYYANWYQQKPGQAPILVIYGTNNRPSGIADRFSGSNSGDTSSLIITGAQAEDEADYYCSSRHSSGFQVFFGAGTKLTVL	3.44 / 3.00 / 3.13	3.19	3/9 (3.85)
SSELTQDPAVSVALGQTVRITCEGDSLRYYYANWYQQKPGQAPILVIYGKNNRPSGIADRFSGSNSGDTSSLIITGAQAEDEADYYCSSRDCSGWQVFFGAGTKLTVL	2.79 / 2.73 / 2.83	2.78	3/9 (4.11)
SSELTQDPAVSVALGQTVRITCEGDSLDYYYANWYQQKPGQAPILVIYGKQNRPSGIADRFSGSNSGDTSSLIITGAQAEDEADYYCSSRDCSGFQVFFGAGTKLTVL	3.66 / 2.90 / 4.28	3.61	0/9
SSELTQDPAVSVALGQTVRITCEGDSLRYYYENWYQQKPGQAPILVIYGKNVRPSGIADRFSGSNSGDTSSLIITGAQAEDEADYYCSSDDSSGFQVFFGAGTKLTVL	ND / ND / ND	ND	4/9 (3.92)
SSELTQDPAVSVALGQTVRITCEGDSLRYYYANWYQQKPGQAPILVIYGKNNHPSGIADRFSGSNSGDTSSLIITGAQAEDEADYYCSSRDPSGFQWFFGAGTKLTVL	3.59 / 3.47 / 3.51	3.52	2/9 (3.84)

Repeated from above, the 2 best binders with a signal in all replicates:

| VL | log10 Kd, replicates | mean, log10 nM | control signals |
|---|---|---|---|
| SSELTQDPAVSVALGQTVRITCEGHSLVYYYANWYQQKPGQAPILVIYGKTNRPSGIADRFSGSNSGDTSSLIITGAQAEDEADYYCSSRDSSGFQVFFGAGTKLTVL | 2.25 / 2.11 / 1.33 | 1.90 | 4/9 (3.84) |
| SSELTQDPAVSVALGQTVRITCEGDCLRYYYANWYQQKPGQAPILVIYGKNNRPSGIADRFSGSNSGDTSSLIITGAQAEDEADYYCSSRDFSGFQVFFGAGTKLTVL | 2.50 / 2.29 / 2.10 | 2.30 | 4/9 (3.87) |

Data: MIT Lincoln Laboratory AlphaSeq set, Engelhart et al. 2022, doi:10.1038/s41597-022-01779-4, as distributed in FLAb.